Test results: PubChem BioAssay AID2284362 (EPA ToxCast)
The list shows a part of the results, in another mix than the full data. Inconclusive results are not listed. Active and inactive are the calls of the source. Rule for the calls: active = hit-call score of the fitted dose curve at least 0.9, where 1 is the maximum; inconclusive = response in the unintended direction; inactive = score below 0.9.

Assay: CCTE_Mundy_HCI_iCellGABA_NOG_NeuriteCount: CCTE's Neurite Outgrowth Assay in iCellGABA cells for Neurite Count, Mundy Lab
Method: CCTE_Mundy_HCI_iCellGABA_NOG is a multiplexed, cell-based-readout assay that uses iCell GABANeurons from FUJIFILM Cellular Dynamics, Inc. (FCDI), human GABAergic enriched neurons derived from induced pluripotent stem (iPS) cells, with measurements taken at 50.33 hours after chemical dosing in a microplate: 96-well plate.CCTE_Mundy_HCI_iCellGABA_NOG_NeuriteCount is one of four components of the CCTE_Mundy_HCI_iCellGABA_NOG assay. It measures neurite outgrowth related to number of neurites using High Content Imaging of fluorescently labelled markers.Data from the assay component CCTE_Mundy_HCI_iCellGABA_NOG_NeuriteCount was analyzed at the endpoint CCTE_Mundy_HCI_iCellGABA_NOG_NeuriteCount in the positive analysis fitting direction relative to DMSO as the negative control and baseline of activity. Using a type of morphology reporter, loss-of-signal activity can be used to understand developmental effects.
Exposure starts 2 hours post-plating by adding 10 ul of the working solution to 90 ul of media in the wells for a 1/10 dilution. […] A Cellomics ArrayScan VTi HCS Reader is used for automated image acquisition and analysis of neurite outgrowth.

| Compound | AC50 |
| --- | --- |
| CC(C)OP(=S)(OC(C)C)SCCNS(=O)(=O)c1ccccc1 | active: 50 µM |
